Earlier results in patent US5202319A, “Substituted 3-amino-2,3,4,5-tetrahydro-1-aryloxy-3-benzazepines” (Hoechst-Roussel Pharmaceuticals Inc., priority 1991, dated 1993).

Tested on: 5HT uptake
Settings: cited from earlier work

Compound	effects on 5HT uptake
CNCCC(Oc1ccc(C(F)(F)F)cc1)c1ccccc1 (centres unmarked) [Fluoxetine]	both a selective and potent 5HT uptake inhibitor
O=c1n(CCCN2CCN(c3cccc(Cl)c3)CC2)nc2ccccn12 [Trazodone]	fairly selective effects on 5HT uptake
